# Laboratory results published in patent US6846803B1, “Antagonists specific for the corticotropin-releasing factor receptor type 2 (CRFR2)” (priority 1998, dated 2005).
# The chains behind the UniProt entries cited, without tags or fusion partners. Residues count along the entry.
# UniProt Q60748, 1-431 isoform Q60748-2: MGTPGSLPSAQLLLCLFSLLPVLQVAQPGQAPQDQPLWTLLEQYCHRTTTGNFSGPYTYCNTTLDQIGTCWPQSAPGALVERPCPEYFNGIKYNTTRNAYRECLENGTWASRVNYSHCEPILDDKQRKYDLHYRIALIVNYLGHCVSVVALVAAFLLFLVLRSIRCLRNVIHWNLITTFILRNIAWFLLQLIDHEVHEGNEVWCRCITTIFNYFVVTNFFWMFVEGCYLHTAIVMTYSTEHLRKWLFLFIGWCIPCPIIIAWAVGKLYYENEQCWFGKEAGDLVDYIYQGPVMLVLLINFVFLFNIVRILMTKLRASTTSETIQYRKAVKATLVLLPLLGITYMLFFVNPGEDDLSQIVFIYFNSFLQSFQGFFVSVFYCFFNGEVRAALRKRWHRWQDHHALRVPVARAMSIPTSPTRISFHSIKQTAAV
# Key:
# mCRFR2β = target: T1, mCRFR2β (Mus musculus, UniProt Q60748); assay: cAMP stimulation / inhibition of Svg-stimulated cAMP production in HEK-mCRFR2β cells; type: cell-based; settings: read-out: HEK-mCRFR2β cells rel. IA (relative intrinsic activity)
# T1 construct: expressed in transfected cells; host or cells: HEK 293 cells, stably transfected (HEK-mCRFR2β); membrane homogenates
# Experimental: (§1) HEK-rCRFR1 cells or HEK-mCRFR2β cells were incubated with different CRF agonists in the presence or absence of 1 μM or 10 nM antagonist, or CRF antagonist (c=1 μM) alone. After removal of the medium, cells were lyzed with aqueous 6% trichloroacetic acid (5 min, 100° C.) (Rühmann, A., A. K. E. Köpke, F. M. Dautzenberg, and J. Spiess, Proc. Natl. Acad. Sci. USA 93: 10609-10613, 1996). The cell lysates were stored at −70° C. until assayed with a RIA kit (Amersham, Little Chalfont). […] Statistical significance was determined across groups with ANOVA, and significant differences between groups were determined by post hoc comparison using the Dunn test.
# (§2) Intrinsic activities were measured at peptide concentrations generating maximal formation of cAMP in HEK-rCRFR1 or HEK-mCRFR2β cells.
# rCRFR1 = target: T2, rCRFR1 (Rattus norvegicus, UniProt P35353); assay: cAMP stimulation / inhibition of oCRF-stimulated cAMP production in HEK-rCRFR1 cells; type: cell-based; settings: read-out: HEK-rCRFR1 cells rel. IA (relative intrinsic activity)
# T2 construct: expressed in transfected cells; host or cells: HEK 293 cells, stably transfected (HEK-rCRFR1)
# T2 sequence (P35353 24-415): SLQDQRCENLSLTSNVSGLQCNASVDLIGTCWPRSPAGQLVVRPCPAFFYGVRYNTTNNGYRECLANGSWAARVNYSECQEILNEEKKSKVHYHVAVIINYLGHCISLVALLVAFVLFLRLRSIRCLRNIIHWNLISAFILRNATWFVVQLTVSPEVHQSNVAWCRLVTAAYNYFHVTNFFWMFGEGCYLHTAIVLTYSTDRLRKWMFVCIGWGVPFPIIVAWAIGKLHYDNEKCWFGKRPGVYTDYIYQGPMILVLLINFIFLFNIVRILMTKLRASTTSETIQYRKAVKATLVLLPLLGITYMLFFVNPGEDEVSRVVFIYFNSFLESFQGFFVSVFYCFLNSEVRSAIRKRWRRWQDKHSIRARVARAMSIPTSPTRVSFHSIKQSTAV
# Experimental: as §1, §2
Structure (SMILES),Emax (mCRFR2β),Emax (rCRFR1)
"CCCC[C@H](NC(=O)[C@H](CCC(=O)O)NC(=O)[C@H](CC(C)C)NC(=O)[C@@H](NC(=O)[C@H](CCC(=O)O)NC(=O)[C@H](CCCNC(=N)N)NC(=O)[C@H](CC(C)C)NC(=O)[C@H](CC(C)C)NC(=O)[C@H](Cc1c[nH]cn1)NC(=O)c1ccc(C2(C(F)(F)F)N=N2)cc1)C(C)C)C(=O)N[C@@H](C)C(=O)N[C@@H](CCCNC(=N)N)C(=O)N[C@@H](C)C(=O)N[C@@H](CCC(=O)O)C(=O)N[C@@H](CCC(N)=O)C(=O)N[C@@H](CC(C)C)C(=O)N[C@@H](C)C(=O)N[C@@H](CCC(N)=O)C(=O)N[C@H]1CCC(=O)NCCCC[C@@H](C(=O)N[C@@H](CC(N)=O)C(=O)N[C@@H](CCCNC(=N)N)C(=O)N[C@@H](CCCCN)C(=O)N[C@@H](CC(C)C)C(=O)N[C@@H](CCCC)C(=O)N[C@@H](CCC(=O)O)C(=O)N[C@H](C(=O)N[C@H](C(N)=O)[C@@H](C)CC)[C@@H](C)CC)NC(=O)[C@H](Cc2ccc(O)cc2)NC(=O)[C@H](C)NC1=O [compound 16, ATB-cyclo(30-33)[Nle^21,38, Glu^30, Tyr^32, Lys^33]h/rCRF(13-41)]",0.8 ± 0.3%,8 ± 1%
"CCCC[C@H](NC(=O)[C@H](CCC(=O)O)NC(=O)[C@H](CC(C)C)NC(=O)[C@@H](NC(=O)[C@H](CCC(=O)O)NC(=O)[C@H](CCCNC(=N)N)NC(=O)[C@H](CC(C)C)NC(=O)[C@H](CC(C)C)NC(=O)[C@H](Cc1c[nH]cn1)NC(=O)c1ccc(C2(C(F)(F)F)N=N2)cc1)C(C)C)C(=O)N[C@@H](C)C(=O)N[C@@H](CCCNC(=N)N)C(=O)N[C@@H](C)C(=O)N[C@@H](CCC(=O)O)C(=O)N[C@@H](CCC(N)=O)C(=O)N[C@@H](CC(C)C)C(=O)N[C@@H](C)C(=O)N[C@@H](CCC(N)=O)C(=O)N[C@H]1CCC(=O)NCCCC[C@@H](C(=O)N[C@@H](CC(N)=O)C(=O)N[C@@H](CCCNC(=N)N)C(=O)N[C@@H](CCCCN)C(=O)N[C@@H](CC(C)C)C(=O)N[C@@H](CCCC)C(=O)N[C@@H](CCC(=O)O)C(=O)N[C@H](C(=O)N[C@H](C(N)=O)[C@@H](C)CC)[C@@H](C)CC)NC(=O)[C@H](C)NC(=O)[C@H](C)NC1=O [compound 15, ATB-cyclo(30-33)[Nle^21,38, Glu^30, Ala^32, Lys^33]h/rCRF(13-41)]",1 ± 0.1%,10 ± 1%
